Values quoted from earlier work, collected in US12551475B2, “Methods and compositions for treating RNA viral infections” (Model Medicines, Inc., priority 2020, dated 2026).

How the values were obtained:
HIV protease = HIV protease (Human immunodeficiency virus type 1 group M subtype B, UniProt P04585); details: cited from earlier work
P. falciparum = details: cited from earlier work

SMILES	Ki (HIV protease)	IC50 (P. falciparum; chloroquine-resistant strain)	IC50 (P. falciparum; chloroquine-sensitive strain)
CC(C)CN(C[C@@H](O)[C@H](Cc1ccccc1)NC(=O)O[C@H]1CCOC1)S(=O)(=O)c1ccc(N)cc1 [Amprenavir, N-[(1S,2R)-3-[[(4-aminophenyl)sulfonyl](2-methylpropyl)amino]-2-hydroxy-1-(phenylmethyl)propyl]-carbamic acid, (3S)-tetrahydro-3-furanyl ester]	0.04 nM		
CCC[C@@H]1C[C@@H](C(=O)N[C@@H]([C@H]2O[C@H](SC)[C@H](O)[C@@H](O)[C@H]2O)[C@H](C)Cl)N(C)C1 [Clindamycin, methyl 7-chloro-6,7,8-trideoxy-6-[[[(2S,4R)-1-methyl-4-propyl-2-pyrrolidinyl]carbonyl]amino]-1-thio-L-threo-α-D-galacto-octopyranoside]		3.12 nM	8.81 nM

Read-outs that look alike come from different tables or passages of the source.
